In PubChem BioAssay AID1024 (Sanford-Burnham Center for Chemical Genomics, 2008):
Only a part is listed here, and it is no random draw. Active and inactive are the calls of the source.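 Rule for the calls: active = activation factor of 2 or more for CYP2C9 at a 5 µM dose; inactive = the rest.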

By UniProt entry, the sequences of proteins in these tests, tags left out.
UniProt P11712, whole entry: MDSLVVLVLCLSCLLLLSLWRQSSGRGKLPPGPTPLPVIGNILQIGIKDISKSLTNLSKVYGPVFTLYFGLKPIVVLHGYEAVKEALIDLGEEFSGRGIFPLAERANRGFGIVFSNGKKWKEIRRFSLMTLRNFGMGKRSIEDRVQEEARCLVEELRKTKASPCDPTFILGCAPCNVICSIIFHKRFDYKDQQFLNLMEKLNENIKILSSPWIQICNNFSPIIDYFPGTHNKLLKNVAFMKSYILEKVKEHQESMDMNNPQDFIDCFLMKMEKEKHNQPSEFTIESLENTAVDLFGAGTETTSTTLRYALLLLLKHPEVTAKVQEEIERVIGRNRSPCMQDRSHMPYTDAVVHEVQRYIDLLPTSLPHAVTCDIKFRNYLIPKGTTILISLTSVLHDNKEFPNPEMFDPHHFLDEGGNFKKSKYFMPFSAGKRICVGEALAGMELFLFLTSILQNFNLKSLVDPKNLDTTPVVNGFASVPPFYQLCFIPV

The compounds below were run against Cytochrome P450 2C9 (Homo sapiens) (UniProt P11712) (assay: enhancers of cytochrome P450 2C9 turnover – biochemical, luminescence, primary screen (AID 1024;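 note: 0 = sulfaphenazole-blocked wells and 1 = vehicle-only wells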)). Settings: recombinant CYP2C9, luciferin-H conversion, at 5 µM, stronger effect = higher value, factor 1 = untreated enzyme, 0 = blocked.

Row | Compound | activation factor
1 | O=C(NCC1(N2CCOCC2)CCCCC1)c1cc(=O)[nH]c2ccccc12 | inactive: 1
2 | N#CC1(Nc2ccccc2)CCN(CCc2ccccc2)CC1 | inactive: 1
3 | COc1ccc(NC2CCN(CCc3ccccc3)CC2)c(OC)c1 | inactive: 0.9
4 | O=C(NCC1(N2CCOCC2)CCCCC1)c1cc2ccccc2o1 | inactive: 0.7
5 | O=C(OC1CN2CCC1CC2)C1c2ccccc2Oc2ccccc21 (stereo not given) | inactive: 1
6 | CCC(CO)(C(=O)OC1CN2CCC1CC2)c1ccccc1 (stereo not given) | inactive: 1.2
7 | CCOc1ncccc1C(=O)NCC1(N2CCOCC2)CCCCC1 | inactive: 0.5
8 | Fc1ccccc1NC1CCN(Cc2ccccc2)CC1 | inactive: 0.9
9 | c1ccc(CN2CCC(Nc3ccccc3)CC2)cc1 | inactive: 0.5
10 | N/C(=N\O)c1c(N)no[n+]1[O-] | inactive: 0.9
